Test systems include K562 cells; MV-4-11 cells; MOLM-13 cells.
Assay in all cases: cells
Details in all cases: Homo sapiens

Setting [1] is: K562, 72 h, read-out: GI50, cell growth inhibitory activity, K562, day 3.
Setting [2] is: K562, 168 h, read-out: GI50, cell growth inhibitory activity, K562, day 7.
Where [3] appears, read: MV4-11, 72 h, read-out: GI50, cell growth inhibitory activity, MV-4-11, day 3, MV-4-11 cells, cultured 3 days, assigned by order and values.
[4] abbreviates: MV4-11, 168 h, read-out: GI50, cell growth inhibitory activity, MV-4-11, day 7, MV-4-11 cells, cultured 7 days, assigned by order and values.
Setting [5] is: MOLM-13, 72 h, read-out: GI50, cell growth inhibitory activity, MOLM-13, day 3, MOLM-13 cells, cultured 3 days, assigned by order and values.
Where [6] appears, read: MOLM-13, 168 h, read-out: GI50, cell growth inhibitory activity, MOLM-13, day 7, MOLM-13 cells, cultured 7 days, assigned by order and values.

SMILES strings stand for the structures. Counter-ions that a name gives are not always drawn. Like-named read-outs stand apart in the source and are kept apart here.

By GI50 is commonly meant the concentration at which growth is held to half of that of the control.

Turning to `COc1nc(N(C)[C@H]2C[C@@H](NCc3ccc(-c4cc(OC)c(Cl)nn4)cc3)C[C@H]2O)c2cc(CC(F)(F)F)sc2n1` [Example 90, (1R,2S,4R)-4-({[4-(6-chloro-5methoxypyridazin-3-yl)phenyl]methyl}amino)-2-{[2-methoxy-6-(2,2,2-trifluoroethyl)thieno[2,3-d]pyrimidin-4-yl](methyl)amino}cyclopentan1-ol hydrochloride], the 50% growth inhibitory concentration (GI50) is 750 nM in the test on K562 cells (setting [1]); 636 nM with K562 cells (setting [2]); under 19.5 nM in the test on MV-4-11 cells (setting [3]); under 19.5 nM with MV-4-11 cells (setting [4]); 324 nM with MOLM-13 cells (setting [5]); 36.4 nM in the test on MOLM-13 cells (setting [6]).

As for `COc1nc(N(C)[C@H]2C[C@@H](NCc3ccc(-c4cnc(F)c(OC)c4)cc3)C[C@H]2O)c2cc(CC(F)(F)F)sc2n1` [Example 91, (1R,2S,4R)-4-({[4-(6-fluoro-5-methoxypyridin-3yl)phenyl]methyl}amino)-2{[2-methoxy6-(2,2,2-trifluoroethyl)thieno[2,3-d]pyrimidin-4-yl](methyl)amino}cyclopentan-1-ol hydrochloride], the GI50 is 769 nM in the test on K562 cells (setting [1]); 542 nM in the test on K562 cells (setting [2]); under 19.5 nM with MV-4-11 cells (setting [3]); under 19.5 nM in the test with MV-4-11 cells (setting [4]); 206 nM in the test on MOLM-13 cells (setting [5]); 52.6 nM with MOLM-13 cells (setting [6]).

Turning to `CNc1ncc(-c2ccc(CN[C@H]3C[C@@H](O)[C@@H](N(C)c4ncnc5sc(CC(F)(F)F)cc45)C3)cc2)cc1OC` [Example 92, (1R,2S,4R)-4-[({4-[5-methoxy-6-(methylamino)pyridin-3-yl]phenyl}methyl)amino]-2-{methyl[6-(2,2,2-trifluoroethyl)thieno[2,3-d]pyrimidin-4-yl]amino}cyclopentan-1-ol hydrochloride], the GI50 amounted to 3480 nM in the test on K562 cells (setting [1]); 2790 nM with K562 cells (setting [2]); 89.1 nM in the test with MV-4-11 cells (setting [3]); 49.3 nM in the test on MV-4-11 cells (setting [4]); 826 nM in the test on MOLM-13 cells (setting [5]); 120 nM in the test with MOLM-13 cells (setting [6]).

`COc1cc(-c2ccc(CN[C@H]3C[C@@H](O)[C@@H](N(C)c4nc(Cl)nc5sc(CC(F)(F)F)cc45)C3)cc2)nnc1OC` [Example 93, (1R,2S,4R)-2-{[2-chloro-6-(2,2,2-trifluoroethyl)thieno[2,3-d]pyrimidin-4-yl](methyl)amino}-4-({[4-(5,6-dimethoxypyridazin-3-yl)phenyl]methyl}amino)cyclopentan-1-ol hydrochloride]: the GI50 in the test on K562 cells (setting [1]) was 1380 nM; with K562 cells (setting [2]) it was 1410 nM; in the test on MV-4-11 cells (setting [3]) it was 55.2 nM; in the test on MV-4-11 cells (setting [4]) it was 35.7 nM; in the test on MOLM-13 cells (setting [5]) it was 659 nM; with MOLM-13 cells (setting [6]), 107 nM.

As to `COc1nc(N(C)[C@H]2C[C@@H](NCc3ccc(-c4cnc(S(C)(=O)=O)c(OC)c4)cc3)C[C@H]2O)c2cc(CC(F)(F)F)sc2n1` [Example 94, (1R,2S,4R)-4-[({4-[6-(methanesulfonyl)-5-methoxypyridin-3-yl]phenyl}methyl)amino]-2-{[2-methoxy-6-(2,2,2-trifluoroethyl)thieno[2,3-d]pyrimidin-4-yl](methyl)amino}cyclopentan-1-ol hydrochloride], the GI50 came to 5040 nM with K562 cells (setting [1]); 2820 nM in the test on K562 cells (setting [2]); 143 nM in the test with MV-4-11 cells (setting [3]); 75.1 nM in the test with MV-4-11 cells (setting [4]); 1540 nM in the test on MOLM-13 cells (setting [5]); 227 nM in the test on MOLM-13 cells (setting [6]).

Take `COc1cc(-c2ccc(CN[C@H]3CC[C@@H](N(C)c4ncnc5sc(CC(F)(F)F)cc45)C3)cc2)nnc1OC` [Example 95, (1R,3S)-N^3-{[4-(5,6-dimethoxypyridazin-3-yl)phenyl]methyl}-N^1-methyl-N^1-[6-(2,2,2-(trifluoroethyl)thieno[2,3-d]pyrimidin-4-yl]cyclopentane-1,3-diamine hydrochloride]: the GI50 in the test on K562 cells (setting [1]) amounted to 5080 nM; in the test on K562 cells (setting [2]) it was 1780 nM; in the test on MV-4-11 cells (setting [3]), 45.4 nM; with MV-4-11 cells (setting [4]) it was 23.9 nM; with MOLM-13 cells (setting [5]), 1100 nM; in the test with MOLM-13 cells (setting [6]), 66.8 nM.

Take `COc1ncc(-c2ccc(CN[C@H]3C[C@@H](O)[C@@H](N(C)c4ncnc5sc(CC(F)(F)F)cc45)C3)cc2)nc1OC` [Example 96, (1R,2S,4R)-4-({[4-(5,6-dimethoxypyrazin-2-yl)phenyl]methyl}amino)-2-{methyl[6-(2,2,2-trifluoroethyl)thieno[2,3-d]pyrimidin-4-yl]amino}cyclopentan-1-ol hydrochloride]: the GI50 in the test on K562 cells (setting [1]) was determined as 3040 nM; in the test on K562 cells (setting [2]), 2610 nM; in the test with MV-4-11 cells (setting [3]), 126 nM; with MV-4-11 cells (setting [4]), 158 nM; in the test on MOLM-13 cells (setting [5]), 268 nM; in the test on MOLM-13 cells (setting [6]), 281 nM.

Turning to `COc1cnc(-c2ccc(CN[C@H]3C[C@@H](O)[C@@H](N(C)c4ncnc5sc(CC(F)(F)F)cc45)C3)cc2)nc1OC` [Example 97, (1R,2S,4R)-4-({[4-(4,5-dimethoxypyrimidin-2-yl)phenyl]methyl}amino)-2-{methyl[6-(2,2,2-trifluoroethyl)thieno[2,3-d]pyrimidin-4-yl]amino}cyclopentan-1-ol hydrochloride], the 50% growth inhibitory concentration (GI50) in the test on K562 cells (setting [1]) is 3210 nM; in the test with K562 cells (setting [2]), 2460 nM; in the test with MV-4-11 cells (setting [3]), 295 nM; in the test on MV-4-11 cells (setting [4]) it was 187 nM; with MOLM-13 cells (setting [5]), 852 nM; in the test with MOLM-13 cells (setting [6]) it was 285 nM.

For `COc1cc(-c2ccc(CN[C@H]3C[C@@H](O)[C@@H](N(C)c4ncnc5sc(CC(F)(F)F)cc45)C3)cc2)nnc1N(C)C` [Example 98, (1R,2S,4R)-4-[({4-[6-(dimethylamino)-5-methoxypyridazin-3-yl]phenyl}methyl)amino]-2-{methyl[6-(2,2,2-trifluoroethyl)thieno[2,3-d]pyrimidin-4-yl]amino}cyclopentan-1-ol hydrochloride], the GI50 with K562 cells (setting [1]) was 5570 nM; in the test with K562 cells (setting [2]), 2100 nM; in the test with MV-4-11 cells (setting [3]) it was 109 nM; with MV-4-11 cells (setting [4]) it was 62.8 nM; in the test on MOLM-13 cells (setting [5]) it was 411 nM; in the test on MOLM-13 cells (setting [6]), 105 nM.

For `COc1cc(-c2ccc(CN[C@H]3C[C@@H](O)[C@@H](N(C)c4ncnc5sc(CC(F)(F)F)cc45)C3)cc2)nnc1C#N` [Example 99, 6-[4-({[(1R,3R,4S)-3-hydroxy-4-{methyl[6-(2,2,2-trifluoroethyl)thieno[2,3-d]pyrimidin-4-yl]amino}cyclopentyl]amino}methyl)phenyl]-4-methoxypyridazine-3-carbonitrile hydrochloride], the GI50 in the test with K562 cells (setting [1]) is 3800 nM; in the test on K562 cells (setting [2]), 1840 nM; in the test on MV-4-11 cells (setting [3]), 62.6 nM; in the test with MV-4-11 cells (setting [4]), 36.5 nM; with MOLM-13 cells (setting [5]) it was 187 nM; with MOLM-13 cells (setting [6]) it was 56.2 nM.

For the molecule `COc1cc(-c2ccc(CN[C@H]3C[C@@H](O)[C@@H](N(C)c4ncncc4Oc4ccc(F)cc4-c4cncnc4C(C)C)C3)cc2)nnc1OC` [Example 100, (1R,2S,4R)-4-({[4-(5,6-dimethoxypyridazin-3-yl)phenyl]methyl}amino)-2-[(5-{4-fluoro-2-[4-(propan-2-yl)pyrimidin-5-yl]phenoxy}pyrimidin-4-yl)(methyl)amino]cyclopentan-1-ol hydrochloride], the GI50 in the test with K562 cells (setting [1]) was over 10000 nM; in the test on K562 cells (setting [2]), 5940 nM; in the test with MV-4-11 cells (setting [3]), 23.6 nM; with MV-4-11 cells (setting [4]) it was under 19.5 nM; in the test on MOLM-13 cells (setting [5]), 137 nM; with MOLM-13 cells (setting [6]) it was 59.8 nM.

Turning to `COc1cc(-c2ccc(CN[C@H]3C[C@@H](O)[C@@H](N(C)c4ncncc4Oc4ccc(F)cc4-c4ccccc4C(C)C)C3)cc2)nnc1OC` [Example 101, (1R,2S,4R)-4-({[4-(5,6-dimethoxypyridazin-3-yl)phenyl]methyl}amino)-2-[(5-{[5-fluoro-2′-(propan-2-yl)[1,1′-biphenyl]-2-yl]oxy}pyrimidin-4-yl)(methyl)amino]cyclopentan-1-ol hydrochloride], the GI50 came out at 2760 nM in the test on K562 cells (setting [1]); 2030 nM in the test on K562 cells (setting [2]); 56.3 nM in the test with MV-4-11 cells (setting [3]); 50.2 nM with MV-4-11 cells (setting [4]); 216 nM in the test on MOLM-13 cells (setting [5]); 132 nM with MOLM-13 cells (setting [6]).

As to `COc1cc(-c2ccc(CN[C@H]3C[C@@H](O)[C@@H](N(C)c4ncncc4Oc4ccc(F)cc4-c4ccnn4C(C)C)C3)cc2)nnc1OC` [Example 102, (1R,2S,4R)-4-({[4-(5,6-dimethoxypyridazin-3-yl)phenyl]methyl}amino)-2-[(5-{4-fluoro-2-[1-(propan-2-yl)-1H-pyrazol-5-yl]phenoxy}pyrimidin-4-yl)(methyl)amino]cyclopentan-1-ol hydrochloride], the 50% growth inhibitory concentration (GI50) in the test with K562 cells (setting [1]) was over 10000 nM; in the test with K562 cells (setting [2]) it was over 10000 nM; in the test with MV-4-11 cells (setting [3]), 39.3 nM; in the test with MV-4-11 cells (setting [4]), 27.1 nM; with MOLM-13 cells (setting [5]), 258 nM; with MOLM-13 cells (setting [6]), 74.2 nM.

In the case of `COc1cc(-c2ccc(CN[C@H]3C[C@@H](O)[C@@H](N(C)c4ncnc5sc(CC(F)(F)F)cc45)C3)cc2)nnc1N1CCC1` [Example 105, (1R,2S,4R)-4-[({4-[6-(azetidin-1-yl)-5-methoxypyridazin-3-yl]phenyl}methyl)amino]-2-{methyl[6-(2,2,2-trifluoroethyl)thieno[2,3-d]pyrimidin-4-yl]amino}cyclopentan-1-ol hydrochloride], the GI50 in the test on K562 cells (setting [1]) is over 5000 nM; in the test on K562 cells (setting [2]), 3370 nM; with MV-4-11 cells (setting [3]) it was 156 nM; in the test with MV-4-11 cells (setting [4]), 129 nM; in the test on MOLM-13 cells (setting [5]), 1630 nM; in the test on MOLM-13 cells (setting [6]) it was 285 nM.

Consider `COc1nc(N(C)[C@H]2C[C@@H](NCc3ccc(-c4cnc(C#N)c(OC)c4)cc3)C[C@H]2O)c2cc(CC(F)(F)F)sc2n1` [Example 106, 5-[4-({[(1R,3R,4S)-3-hydroxy-4-{[2-methoxy-6-(2,2,2-trifluoroethyl)thieno[2,3-d]pyrimidin-4-yl](methyl)amino}cyclopentyl]amino}methyl)phenyl]-3-methoxypyridine-2-carbonitrile hydrochloride], for which the GI50 is 435 nM with K562 cells (setting [2]), 24.8 nM in the test on MV-4-11 cells (setting [4]) and 59.7 nM with MOLM-13 cells (setting [6]).

For the origin of these results see patent publication US11236106B2, “Cycloalkane-1,3-diamine derivative” (Daiichi Sankyo Company, Limited, priority 2018, dated 2022).
